In patent US9789092B2 (Assistance Publique—Hopitaux de Paris, priority 2013, dated 2017):

System: patient suffering from AMN
Procedure: At Month 5, a brain MRI with brain NMR spectroscopy (NMRS) was performed in the brain white matter.

O=C(O)CCCC[C@@H]1SC[C@@H]2NC(=O)N[C@@H]21 [biotin, Biotin]
Ch/NAA ratio (M5: 2013 Jun. 25, after treatment, baseline 0.90): 0.86
Ch/Cr ratio (M5: 2013 Jun. 25, after treatment, baseline 1.50): 1.56
N-acetyl aspartate (NAA)/creatine (Cr) ratio compared to baseline, in words (Month 5): some improvement
